Assays:
TtgR (TtgR^WT) [1] = biological target: TtgR (TtgR^WT) (Pseudomonas putida, UniProt Q9AIU0, N110A); experiment: biochemical
Text: (§1) isothermal titration calorimetry, one set of sites on TtgR (TtgR^WT)

Protein sequences, listed by entry. Tags and fused reporters are not part of them.
UniProt Q9AIU0, whole entry N110A: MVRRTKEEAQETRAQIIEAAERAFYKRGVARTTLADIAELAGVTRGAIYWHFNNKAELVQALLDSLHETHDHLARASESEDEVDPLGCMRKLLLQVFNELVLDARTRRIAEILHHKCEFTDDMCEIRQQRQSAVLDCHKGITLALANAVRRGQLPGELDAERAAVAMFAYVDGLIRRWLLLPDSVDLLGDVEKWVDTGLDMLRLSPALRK
UniProt Q9AIU0, whole entry H114A: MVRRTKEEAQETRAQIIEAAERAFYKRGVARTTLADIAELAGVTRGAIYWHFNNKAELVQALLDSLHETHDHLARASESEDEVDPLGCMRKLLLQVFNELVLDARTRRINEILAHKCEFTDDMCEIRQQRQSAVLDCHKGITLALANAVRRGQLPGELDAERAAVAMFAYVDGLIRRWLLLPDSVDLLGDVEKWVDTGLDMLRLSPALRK
UniProt Q9AIU0, whole entry E78A: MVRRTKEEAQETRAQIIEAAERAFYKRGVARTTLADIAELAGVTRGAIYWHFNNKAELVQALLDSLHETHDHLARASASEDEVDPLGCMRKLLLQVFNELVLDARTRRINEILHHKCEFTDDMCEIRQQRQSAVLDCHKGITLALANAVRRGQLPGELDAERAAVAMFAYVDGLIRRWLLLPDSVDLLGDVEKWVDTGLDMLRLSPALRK

TtgR (TtgR^WT) [2] = biological target: TtgR (TtgR^WT) (Pseudomonas putida, UniProt Q9AIU0, H114A); experiment: biochemical
Text: as §1

TtgR (TtgR^WT) [3] = biological target: TtgR (TtgR^WT) (Pseudomonas putida, UniProt Q9AIU0, E78A); experiment: biochemical
Text: as §1

TtgR (TtgR^WT) [4] = biological target: T1, TtgR (TtgR^WT) (Pseudomonas putida, UniProt Q9AIU0); experiment: isothermal titration calorimetry, one set of sites; type: binding
T1 construct: homodimer

For O=C1C[C@@H](c2ccc(O)cc2)Oc2cc(O)cc(O)c21 [naringenin], the Kd (TtgR (TtgR^WT) [1]) was 18.1 ± 1 µM, the Kd (TtgR (TtgR^WT) [2]) was 22 ± 0.8 µM and the Kd (TtgR (TtgR^WT) [3]) was 21.8 ± 0.6 µM. The Kd (TtgR (TtgR^WT) [4]) was 16 ± 2 µM.

From paper PMC4589371, “Molecular Binding Mechanism of TtgR Repressor to Antibiotics and Antimicrobials” (PLoS ONE, 2015)
